## Antibody variant affinities, Ab-14 light chain, assay B

From the AlphaSeq antibody data of Li et al. 2023 (doi:10.1038/s41467-023-39022-2), copy in the FLAb collection.

Antigen: PDVDLGDISGINAS, a 14-residue peptide of the SARS-CoV-2 spike HR2 region.

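This is the validation round: designs drawn from the data on random variants, tested in the same kind of assay. Several design methods are mixed in this list. In AlphaSeq, yeast of one mating type display the scFv and yeast of the other type display the target. Pairs that bind mate more often; barcode pairs of the diploids are counted by sequencing. Read counts were normalised to the haploid input and turned into Kd by a linear fit to BCL2-family pairs of known affinity, for each replicate. Each pool was mated in six replicate cultures.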

Parent: Ab-14, a human scFv built as VH, the linker GGGGSGGGGSGGGGS, VL. Only the CDRs of the light chain vary.
VH: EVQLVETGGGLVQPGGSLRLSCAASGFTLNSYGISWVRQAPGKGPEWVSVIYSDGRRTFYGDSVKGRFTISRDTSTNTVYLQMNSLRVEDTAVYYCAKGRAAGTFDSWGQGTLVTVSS
VL: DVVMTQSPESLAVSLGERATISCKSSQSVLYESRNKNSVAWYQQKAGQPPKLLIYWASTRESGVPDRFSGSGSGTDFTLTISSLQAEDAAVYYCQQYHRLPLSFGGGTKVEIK

Sequences are complete VL domains.
Values are log10 of the apparent Kd in nM; lower means stronger binding.
Averages over replicates are reported, and they cover detected replicates only.
Where no diploid with the target was found in any replicate, the entry reads "no signal": below detection, most likely a poor binder, though not proof of it.
A sequence measured in both rounds can read differently, since the two assays cover different ranges.
Three control strains display no target. For all light chain designs, 4% of the pairings with them gave a signal, with a median of 2.64 and one signal in twenty below 1.59, so weak values seen in few replicates may be background.
Of ten entries with the parent sequence, four were seen in most replicates (averages 0.34 to 2.37), three in one and three in none, so single entries are noisy.
The authors' rule: three or more of the six replicates give a measured affinity, fewer mean a poor binder.

| # | mean, log10 nM | seen in | VL |
|---|---|---|---|
| 1 | 0.90 | 6/6 | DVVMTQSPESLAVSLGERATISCHMSQVTMYGMWMKNSVAWYQQKAGQPPKLLIYQTSTREEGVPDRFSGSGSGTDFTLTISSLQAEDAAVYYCQQYDRLPLSFGGGTKVEIK |
| 2 | -0.08 | 6/6 | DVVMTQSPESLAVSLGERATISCKVEQSINYESRNKNSVAWYQQKAGQPPKLLIYNASTRESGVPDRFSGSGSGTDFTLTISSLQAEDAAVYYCQQYHRLPLSFGGGTKVEIK |
| 3 | 0.64 | 6/6 | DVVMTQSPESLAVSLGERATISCKTYVSDLYESRNKNSVAWYQQKAGQPPKLLIYQASERESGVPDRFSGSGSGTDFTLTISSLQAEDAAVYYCQQYHRLPLSFGGGTKVEIK |
| 4 | 0.84 | 6/6 | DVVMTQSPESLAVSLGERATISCKYSISVLYESRNKNSVAWYQQKAGQPPKLLIYQAVTRESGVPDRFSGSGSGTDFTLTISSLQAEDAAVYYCQQYHRLPLSFGGGTKVEIK |
| 5 | 0.08 | 6/6 | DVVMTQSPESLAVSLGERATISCKASQSWLYESRNFWSVAWYQQKAGQPPKLLIYGASTRESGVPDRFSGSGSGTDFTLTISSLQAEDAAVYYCQQYHRLPLSFGGGTKVEIK |
| 6 | -0.46 | 6/6 | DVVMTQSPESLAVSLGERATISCKVSQSQLYESRNKNAVAWYQQKAGQPPKLLIYQASTRESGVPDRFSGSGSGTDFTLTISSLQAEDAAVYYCQQYHRLPLSFGGGTKVEIK |
| 7 | no signal | 0/6 | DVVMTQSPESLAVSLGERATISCKSSQSVYYESRNKNNVAWYQQKAGQPPKLLIYWASTREYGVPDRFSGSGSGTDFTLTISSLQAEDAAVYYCQQYHRLPLSFGGGTKVEIK |
| 8 | 1.38 | 6/6 | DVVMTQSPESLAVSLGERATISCNLGYQQDGNGLQRQAVAWYQQKAGQPPKLLIYNVTMKEYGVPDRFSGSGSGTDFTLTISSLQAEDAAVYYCQQYGRLPLMFGGGTKVEIK |
| 9 | 0.63 | 6/6 | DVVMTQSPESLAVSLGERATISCKLSMVTGHMSLAKNNVAWYQQKAGQPPKLLIYEMVTREKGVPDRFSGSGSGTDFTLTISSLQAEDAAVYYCQQYNRLPLSFGGGTKVEIK |
| 10 | -0.27 | 6/6 | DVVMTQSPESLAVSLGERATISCKYSQSVLGEQRNKNSVAWYQQKAGQPPKLLIYDASTRESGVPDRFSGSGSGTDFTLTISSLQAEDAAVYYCQQYHRLPLSFGGGTKVEIK |
| 11 | 2.16 | 5/6 | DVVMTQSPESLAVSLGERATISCTVGQVTMVESYNKDSVAWYQQKAGQPPKLLIYQASTRLEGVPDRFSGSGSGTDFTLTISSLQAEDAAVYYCQDYHRLPLSFGGGTKVEIK |
| 12 | 1.69 | 6/6 | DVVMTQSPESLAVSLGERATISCRLTSHESESKAADASVAWYQQKAGQPPKLLIYDENTRGDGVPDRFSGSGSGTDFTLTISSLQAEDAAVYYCQQYHRLPLFFGGGTKVEIK |
| 13 | -0.21 | 6/6 | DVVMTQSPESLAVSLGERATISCKQPQGVLYESRNKNSVAWYQQKAGQPPKLLIYGASVRESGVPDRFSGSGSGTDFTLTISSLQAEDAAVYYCQQYHRLPLSFGGGTKVEIK |
| 14 | -0.06 | 6/6 | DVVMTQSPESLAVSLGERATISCKLLQSVLYESRNKNNVAWYQQKAGQPPKLLIYHASTREDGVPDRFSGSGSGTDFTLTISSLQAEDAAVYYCQQYARLPLSFGGGTKVEIK |
| 15 | 1.56 | 6/6 | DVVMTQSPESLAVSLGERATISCKDSYSVLYESRNKNSVAWYQQKAGQPPKLLIYWASTRISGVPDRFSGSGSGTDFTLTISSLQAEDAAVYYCQQYHRLPLSFGGGTKVEIK |
| 16 | -0.07 | 6/6 | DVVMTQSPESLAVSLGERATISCKSSISYLYESRNKNSVAWYQQKAGQPPKLLIYEASIRESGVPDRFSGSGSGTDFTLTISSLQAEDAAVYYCQQYHRLPLSFGGGTKVEIK |
| 17 | 1.62 | 6/6 | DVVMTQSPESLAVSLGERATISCMISQMWNMGQFAINSVAWYQQKAGQPPKLLIYQASERNTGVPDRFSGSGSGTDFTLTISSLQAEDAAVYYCQQYDRLPLIFGGGTKVEIK |
| 18 | 2.99 | 3/6 | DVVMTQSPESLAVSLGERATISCKSSQSVLYESRNKNSVAWYQQKAGQPPKLLIYWGSTRESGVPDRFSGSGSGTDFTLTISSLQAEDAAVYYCQQYHDLPLSFGGGTKVEIK |
| 19 | -0.09 | 6/6 | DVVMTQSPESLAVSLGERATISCKLQQSVLYESRNKNAVAWYQQKAGQPPKLLIYDASTRESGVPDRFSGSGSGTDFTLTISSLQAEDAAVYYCQQYHWLPLSFGGGTKVEIK |
| 20 | 0.22 | 6/6 | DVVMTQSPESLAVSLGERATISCKSSQSVLGEARNKNSVAWYQQKAGQPPKLLIYDASTRESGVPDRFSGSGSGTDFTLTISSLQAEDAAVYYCQQYHRLPLSFGGGTKVEIK |
| 21 | no signal | 0/6 | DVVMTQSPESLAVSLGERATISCKSSQSVGYMSSNKNSIAWYQQKAGQPPKLLIYWASERESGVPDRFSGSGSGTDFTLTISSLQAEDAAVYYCQQYHRMMLSFGGGTKVEIK |
| 22 | 0.13 | 6/6 | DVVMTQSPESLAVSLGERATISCKMAQGWMYESRWKNSVAWYQQKAGQPPKLLIYNASVRESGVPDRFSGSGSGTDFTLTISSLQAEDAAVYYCQQYHRLPLSFGGGTKVEIK |
| 23 | -0.51 | 6/6 | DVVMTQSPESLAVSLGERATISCKLQQSFLYESRNKNSVAWYQQKAGQPPKLLIYDASTRCSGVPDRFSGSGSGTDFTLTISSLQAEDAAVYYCQQYHRLPLSFGGGTKVEIK |
| 24 | -0.42 | 6/6 | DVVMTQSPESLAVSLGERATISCKLSQSDLYESRNKNSVAWYQQKAGQPPKLLIYDASTRLSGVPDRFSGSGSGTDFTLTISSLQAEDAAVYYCQQYHRLPLSFGGGTKVEIK |
| 25 | no signal | 0/6 | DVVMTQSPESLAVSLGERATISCLIMKFMSQDGSARNNIAWYQQKAGQPPKLLIYGDTKLAQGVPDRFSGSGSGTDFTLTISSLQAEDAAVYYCQHYYRLPLSFGGGTKVEIK |

A selection of 2 entries from above:

VL	mean, log10 nM	seen in
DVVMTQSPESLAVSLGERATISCKSSISYLYESRNKNSVAWYQQKAGQPPKLLIYEASIRESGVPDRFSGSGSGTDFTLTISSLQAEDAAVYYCQQYHRLPLSFGGGTKVEIK	-0.07	6/6
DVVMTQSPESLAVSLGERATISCKLLQSVLYESRNKNNVAWYQQKAGQPPKLLIYHASTREDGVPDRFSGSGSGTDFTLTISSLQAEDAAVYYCQQYARLPLSFGGGTKVEIK	-0.06	6/6